From patent US20220162323A1 (Regeneron, published 2022)
Values belong to the binder of their own block, whether it stands above or below them.

Target: T1, hFGFR2b.mmh (human)
T1 construct: also called Human FGFR2b with C-terminal myc-myc-hexahistidine tag
T1 chain: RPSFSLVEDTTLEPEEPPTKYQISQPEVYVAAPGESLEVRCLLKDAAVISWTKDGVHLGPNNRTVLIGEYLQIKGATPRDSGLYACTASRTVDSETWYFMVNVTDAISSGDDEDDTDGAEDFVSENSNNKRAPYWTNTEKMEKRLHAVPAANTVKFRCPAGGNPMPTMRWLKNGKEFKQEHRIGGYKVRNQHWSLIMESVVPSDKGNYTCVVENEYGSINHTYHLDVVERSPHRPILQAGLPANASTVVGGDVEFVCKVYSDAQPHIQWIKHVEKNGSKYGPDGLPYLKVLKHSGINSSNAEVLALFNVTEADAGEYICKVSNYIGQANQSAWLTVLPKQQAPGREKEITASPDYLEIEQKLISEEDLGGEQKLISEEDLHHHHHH
Assay: SPR (Biacore), ADC captured by anti-human Fc, hFGFR2b-MMH as analyte, 25 C
Method: The equilibrium dissociation constants (KD values) for hFGFR2b.mmh binding to anti-FGFR2 antibodies conjugated with Tubulysin (“tubulysin 1ALP”), Auristatin (“auristatin LP1”), or mc-VC-PAB-NMe-C3-May (“maytansinoid 1ALP”) were determined using a real-time surface plasmon resonance biosensor assay on a Biacore 2000 or a Biacore 4000 instrument. The Biacore sensor surface was derivatized by amine coupling with a monoclonal mouse anti-human Fc antibody (REGN2567 or Jackson Cat. No #109-005-098) to capture anti-FGFR2 ADC and parent unmodified antibodies expressed with human constant regions. Biacore binding studies were performed in HBS-EP running buffer (0.01M HEPES pH 7.4, 0.15M NaCl, 3 mM EDTA, 0.05% v/v Surfactant P20). […] Association of hFGFR2b-MMH or hFGFR2c-MMH to each of the captured ADCs and monoclonal antibodies was monitored for 4 minutes. Subsequently, dissociation was monitored for 10 minutes in HBS-EP running buffer. […] Kinetic association (kₐ) and dissociation (kd) rate constants were determined by fitting the real-time sensorgrams to a 1:1 binding model using Scrubber 2.0c curve fitting software. […] Binding dissociation equilibrium constants (KD) and dissociative half-lives (t½) were calculated from the kinetic rate constants as: […]

Kd: 48.1 nM
B1: mAb1-tubulysin 1ALP (antibody, human IgG4 S228P, kappa, V domains shown)
VH: QVQLVESGGGVVQPGRSLRLSCAASGFTFSSYGMHWVRQAPGKGLEWVAVIWYDGSNKYYADSVKGRFTISRDNSKNTLYLQMNSLRAEDTAVYYCAREESSASGVDYWGQGTLVTVSS
VL: EIVLTQSPGTLSLSPGERATLSCRASQSVSTRYLAWYQQKRGQAPRLLIYGASSRATGIPDRFSGSGSGTDFTLTISRLEPEDFAVYYCQEYGSSSITFGQGTRLEIKR
modifications: deglycosylated; Q295 carries azido-PEG3-amine clicked to Tubulysin 1A-LP; DAR 2.1 per antibody
notes: also called Anti FGFR2 mAb1-PEG3-N3-Tubulysin 1A-LP

Kd: 23.1 nM
B2: mAb2-tubulysin 1ALP (antibody, V domains shown)
VH: QVQLVESGGGVVQPGKSLRLSCAASGFTFSNYGMHWVRQTPVKGLEWVTLIWYDGSNKYYTDSVKGRFTISRDNSKNTLYLQMNSLRSEDTAVYYCAREGNWNYGHAFDIWGQGTMVTVSS
VL: DIQMTQSPSTLSASVGDRVTITCRASQNIGNWLAWYQQKPGKAPNLLIYKASTLESGVPSRFSGSGSGTEFTLTISSLQPDDFATYNCQQYNSYSPTFGQGTKLEIKR
modifications: deglycosylated; Q295 carries azido-PEG3-amine clicked to Tubulysin 1A-LP; DAR 2.1 per antibody
notes: also called Anti FGFR2 mAb2-PEG3-N3-Tubulysin 1A-LP
